The record followed here is patent US4186202A, “Phenyl-pyridylamine derivatives” (priority 1974, dated 1980).

The structures appear in SMILES notation.

Experiment [1] deals with uptake of 3H-noradrenaline. In words: Inhibition of uptake of 3H-noradrenaline in mouse midbrain slices, in vitro. Format: biochemical. As to conditions: 5-HT versus noradrenaline uptake. The procedure: (§1) It is not possible by experimental means to induce depressions in laboratory animals. In order to evaluate a possible anti-depressive effect of new substances biochemical-pharmacological test methods must be resorted to. One such method, which seems to give a good indication of the potential anti-depressive effects of the test substances, is described in Europ.
(§2) The test substances were administered intraperitoneally half an hour before the animals were killed. […] The incubation time was 5 minutes with 5 minutes of preincubation before the labelled amines were added. The slices were dissolved in Soluene® and the amounts of radio-active amines taken up were determined by liquid scintillation. […] Active uptake is defined as that part of the radioactive uptake which is inhibited by a high concentration of cocaine.
(§3) In the in vitro method, slices of mouse midbrain were preincubated for 5 minutes with a solution of the compound to be tested and then incubated as described above.

Experiment [2] has as its system uptake of 14C-5-hydroxytryptamine. Put plainly: Inhibition of uptake of 14C-5-HT in mouse midbrain slices, in vitro. In kind it is biochemical. To be noted: tested as the hydrochloride. The procedure:
as §1, §2, §3

Experiment [3] shares this test system. In words: Inhibition of uptake of 14C-5-HT in mouse midbrain slices after in vivo (i.p.) administration. The procedure:
as §1, §2

As to `CNC/C=C(\c1ccc(Br)cc1)c1cccnc1` [E-form of the compound of the invention, 3-(4-bromophenyl)-N-methyl-3-(3-pyridyl)-allylamine], the “selectivity of uptake inhibition” value in experiment [1] is reported as “primarily inhibits the uptake of noradrenaline”.
Regarding `CNC/C=C(/c1ccc(Br)cc1)c1cccnc1` [Z-form of the compound of the invention, 3-(4-bromophenyl)-N-methyl-3-(3-pyridyl)-allylamine], the “inhibition of the uptake of 5-HT in vitro, compared with prior art compounds” value in experiment [2] was “more potent inhibitor of the uptake of 5-HT in vitro than any of the prior art compounds”. In addition, the “inhibition of the uptake of 5-HT in vivo, compared with prior art compounds” value in experiment [3] is “stronger inhibition of the uptake of 5-HT in vivo than do any of the prior art compounds tested”.
